Tests used:
Mus musculus = test: Ratio of drug uptake in brain to plasma in chow fed mouse at 100 mg/kg, po for 3 days measured after 1 hr post last dose
[1] = Efflux ratio of permeability from […] in MDR expressing MDCK cells; assay type: ADME, cell-based, Canis lupus familiaris; conditions: dog, MDCK-MDR1

Compound	BPR (Mus musculus) [%]	efflux ratio [1]
NC(=O)CN=C(NS(=O)(=O)c1ccc(Cl)cc1)N1CC(c2ccccc2)C(c2ccc(Cl)cc2)=N1 (single isomer, unassigned; enantiomer 1)	4	
CC(C)[C@H](N/C(=N\S(=O)(=O)c1ccc(Cl)cc1)N1CC(c2ccccc2)C(c2ccc(Cl)cc2)=N1)C(N)=O (some centres undefined)	< 1	15
NC(=O)CN=C(NS(=O)(=O)c1ccc(Cl)cc1)N1CC(c2ccccc2)C(c2ccc(Cl)cc2)=N1 (racemic)		34
